Where two headings read alike, the source gives them in different places.
Details: ethanol dilution
Method: The lyophilization cycle involved rapid freezing of the sample (2.5 ml fill of 10 ml vial) to a sample temperature of -50°C, followed by lyophilization at a tray temperature of -35°C for 42 hours to remove primary water, and for 2 hours at 20°C to remove secondary water.
The MLVs may be passed (5-10x) through stacked polycarbonate filters (pore size of 80 nm) using an EXTRUDER (Lipex Biomembranes, Vancouver, Canada).

In the case of `CCOC(=O)C(N)CCC(=O)NC(CSCc1ccccc1)C(=O)N[C@@H](C(=O)OCC)c1ccccc1.Cl` (stereo partly drawn) [Compound 9, γ-Glutamyl-S(benzyl)cysteinyl-R-phenyl glycine diethyl ester hydrochloride], the “Drug” value (Drug/Lipid 0.1 wt/wt, EPC, comparative example) is reported as 12.9 mg/mL, the “Drug” value (Drug/Lipid 0.14 wt/wt, EPC/EPG (1/1)) is reported as 14.4 mg/mL and the “Drug” value (Drug/Lipid 0.25 wt/wt, EPC/EPG (9/1), comparative example) is reported as 13.6 mg/mL.
